These results are taken from article PMC5641120, “Small-molecule inhibitors of PD-1/PD-L1 immune checkpoint alleviate the PD-L1-induced exhaustion of T-cells” (Oncotarget, 2017).

For the assay, the target named is PD-1/PD-L1 immune checkpoint. Put plainly: PD1/PD-L1 checkpoint assay (ECs co-cultured with aAPCs, NFAT-luciferase reporter). The class given is cell-based, human. The settings on record: Hill fit of luciferase activity, 6 h co-culture of ECs and aAPCs. From the text: A T lymphocyte-like cell line (Jurkat) modified to constitutively express PD-1 and carrying a luciferase reporter gene driven by TCR-inducible NFAT response element (Effector Cells, ECs) was used in T cell activation experiments. When antigen-presenting surrogate CHO cells, constitutively expressing the TCR agonist and PD-L1 (aAPCs) are presented to these ECs in co-culture, TCR signaling is repressed by PD-1 and the reporter remains silenced. Agents efficiently interfering with the PD-1/PD-L1 interaction activate the expression of the reporter gene resulting in the increase in luminescence intensity.
To verify the potency of BMS compounds in the inhibition of the PD-1/PD-L1 interactions, a cell-based model of the PD-1/PD-L1 immune checkpoint blockade was used. […]
The aAPCs were seeded in white 96-well plates at the density of 10 000 per well in the culture medium 24 h prior to the assay. […] After incubation for 10 min, luminescence was quantified using FlexStation 3 (Molecular Devices). Half maximal effective concentrations (EC50) and maximal luminescence values (RLUmax) were determined by fitting the Hill equation to the experimental data.

One may read the EC50 as the concentration at which the effect is half-maximal.

As for nivolumab: anti-PD-1 antibody, the EC50 is 1150 ± 360 pM.
Regarding pembrolizumab: anti-PD-1 antibody, the EC50 stood at 551 ± 52 pM. Against the preceding substance, the EC50 is about 2.1-fold lower.
